## Apparent affinities of Ab-14 variants for a coronavirus HR2 peptide

All variants were tested on one target, the spike HR2 peptide PDVDLGDISGINAS (SARS-CoV-2).

The variants keep the heavy chain, the linker and the frameworks of Ab-14 (scFv order VH, a 15-residue (Gly4Ser)3 linker, VL).
VH: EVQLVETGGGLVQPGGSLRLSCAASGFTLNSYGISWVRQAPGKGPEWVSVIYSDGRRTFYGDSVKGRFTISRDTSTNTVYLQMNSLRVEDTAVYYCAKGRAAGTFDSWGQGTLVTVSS
VL: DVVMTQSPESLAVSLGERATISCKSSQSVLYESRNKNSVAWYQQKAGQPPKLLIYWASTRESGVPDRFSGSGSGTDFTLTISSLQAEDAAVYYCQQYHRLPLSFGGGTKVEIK

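The parent was found by panning a naive human phage display library on the peptide. This is the validation round: designs drawn from the data on random variants, tested in the same kind of assay. Their group label is 14L_En_Gen (En: ensemble of fine-tuned language models; Gen: genetic algorithm). Affinity was read by AlphaSeq, a pooled yeast mating assay with surface-displayed partners. Mating (16 h, 30 °C) was followed by selection of diploids and sequencing of their barcodes. Each replicate has its own calibration line, from reference interactions of the BCL2 family. There are six technical replicates.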

Each variant is given by its three light chain CDRs, as the data file delimits them; those of the parent are KSSQSVLYESRNKNSVA, WASTRES, QQYHRLPLS. Scale: log10 of Kd in nM, estimated from mating counts; low values are strong binders. Averages over replicates are reported, and they cover detected replicates only. "nd" means that the variant was in the library but no mating with the target was seen in that replicate; the authors take this as a sign of poor binding, and no number exists. Values of this round are not directly comparable with the first-round values of the same sequences. As a blank, each scFv also met three strains without target: over all light chain designs, 4% of these pairings were detected, typically at 2.64 and seldom below 1.59. For each scFv, signals with the empty controls are counted beside the result, with their mean in brackets. Of ten entries with the parent sequence, four were seen in most replicates (averages 0.34 to 2.37), three in one and three in none, so single entries are noisy. In the paper, a design with two or fewer of six values counts as a poor binder.

| CDR-L1 | CDR-L2 | CDR-L3 | replicates, log10 nM | mean log10 Kd (nM) | empty controls |
|---|---|---|---|---|---|
| KVSEFQRGLMSRQDSIA | DNVTRNS | QQYDRLPLS | nd nd 2.28 nd nd nd | 2.28 | 1/18 (3.16) |
| HITYGMMVAGRHSSSIA | QAEERAK | QQYDRLPLS | 0.58 0.68 0.80 1.00 0.52 0.71 | 0.71 | 1/18 (3.26) |
| MISQLMQMGQFAINSVA | QASIRNE | QQYDRLPLI | 1.27 1.13 1.01 0.65 0.74 1.13 | 0.99 | 1/18 (2.89) |
| MLSQMWAIGMKVSNSVA | QVSTRFE | QQYDRLPLI | 1.59 0.91 1.47 0.93 0.75 1.58 | 1.21 | 1/18 (2.57) |
| KIGMTLNQLMQKKNNVA | DLVTREA | QQYHRLPLS | -0.10 0.07 -0.28 -0.21 -0.18 0.09 | -0.10 | 1/18 (2.39) |
| TISQLHNMGTFAINSVA | QASIRNS | QQYDRLPLI | 1.28 0.62 0.37 0.39 0.49 0.75 | 0.65 | 0/18 |
| MISQLYNMGSFAINSVA | QAELRND | QQYDRLPLT | 2.03 1.81 2.51 2.10 2.89 2.16 | 2.25 | 0/18 |
| KVSEFMRGLTQRKDSIA | DNVTRNK | QQYDRLPLS | nd 2.77 nd 1.65 2.19 3.10 | 2.43 | 1/18 (2.48) |
| MISQVMNTLTRNGNNVA | DLENRED | QQYFRLPLS | nd nd nd nd nd nd | nd | 0/18 |
| KISMLHNQTFNISNNVA | EMVTREK | QQYNRLPLS | 2.58 nd nd 2.33 3.50 2.57 | 2.75 | 1/18 (2.46) |
| QLSMITGHVSMIKNNVA | EMETRMN | QQYDRLPLS | 0.93 0.46 0.15 0.51 0.39 0.91 | 0.56 | 0/18 |
| KISSMVRVGATHSNSIA | EEAKRAD | QQYHRLPLA | 0.18 0.13 0.30 0.16 -0.08 0.17 | 0.14 | 0/18 |
| TIADLMGHISKQTNNVA | DQNTRGD | QQYNRLPLS | 0.58 0.35 0.20 0.20 0.54 0.74 | 0.44 | 0/18 |
| HMSAVTLGGTRARNSVA | QMTTREN | QQYDRLPLS | 1.83 1.28 1.56 1.46 1.89 1.39 | 1.57 | 1/18 (1.79) |
| SISGFMKSLSVHANSVA | DMTNREN | QQYDRLPLS | 0.98 0.97 0.88 0.59 0.86 0.90 | 0.86 | 3/18 (2.63) |
| KLTQVTGHLSAIKNNVA | EMVTREN | QQYNRLPLS | 0.71 0.62 0.52 0.46 0.36 0.71 | 0.57 | 1/18 (2.89) |
| KIGMTLNTLLHQKNNVA | DLVTREN | QQYFRLPLS | 0.61 0.70 0.53 0.57 0.49 0.79 | 0.62 | 0/18 |
| MISQLMNMGQFAINSVA | QAETRNE | QQYDRLPLE | nd nd nd nd 2.44 2.53 | 2.49 | 0/18 |
| MISQLMNMGQFAINSVA | QASIRNM | QQYDRLPLM | nd nd nd nd nd 1.43 | 1.43 | 0/18 |
| MISQVMNTLTRYGNNVA | DLTEREE | QQYFRLPLS | 0.89 1.19 2.16 0.79 0.77 1.20 | 1.17 | 0/18 |
| TISQLYNMGQFAINSVA | QASERCN | QQYDRLPLT | 0.73 0.63 0.91 0.24 0.32 0.87 | 0.61 | 1/18 (2.96) |
| MISQLMNMGQFAINSVA | QASLRYN | QQYDRLPLM | nd 1.69 nd 2.53 nd nd | 2.11 | 0/18 |
| IIAQLMYWGNKHANSIA | QASQRLN | QQYHHLPLT | nd nd nd 2.56 2.45 nd | 2.51 | 0/18 |
| KISQMTRVGSTHNNSIA | EEATRAK | QQYHRLPLF | 1.71 2.62 2.03 2.18 1.43 1.82 | 1.97 | 1/18 (2.60) |
| TLYGLSNSMSINKNNVA | EMSTREP | QQYDRLPLE | 1.59 1.63 2.39 1.09 1.45 2.41 | 1.76 | 0/18 |
| VLSGITNQAMSKHNSVA | NVTMRPD | QQYHRLPLS | 0.96 0.69 0.65 0.93 0.86 0.94 | 0.84 | 2/18 (2.69) |
| MVQQLYNMGSFAINSVA | QASTRNE | QQYDRLPLM | 0.81 1.07 1.05 1.11 1.01 0.93 | 1.00 | 0/18 |
| KIGMTLNTLMHKKNNVA | DLVTREQ | QQYHRLPLS | 1.48 0.75 0.69 0.57 0.51 0.72 | 0.79 | 2/18 (3.00) |
| KLMSVTGTEKVMGNNVA | EMETREK | QQYNRLPLA | 0.19 0.42 -0.30 0.23 -0.21 0.18 | 0.09 | 0/18 |
| KIYGMQGMLTRQANSIA | DNTTRGN | QQYHRLPLS | 2.54 2.20 1.87 1.68 1.76 2.66 | 2.12 | 0/18 |
| MLGESYGNMVQKKSSIA | DNSTREA | QQYDRLPLS | 1.29 1.57 1.38 1.61 1.69 2.01 | 1.59 | 1/18 (2.96) |
| MMSQVTGLGTRHRNNVA | QTSTREP | QQYDHLPLI | 0.68 0.77 0.88 0.75 0.66 0.93 | 0.78 | 0/18 |
| MVNSIMDHLSKQTNNVA | ETVTREE | QQYDRLPLS | 1.25 0.79 1.33 0.99 1.05 1.43 | 1.14 | 0/18 |
| IVSQLMLWGYHAKNSIA | EAELRTN | QQYDRLPLF | nd 0.99 nd 0.80 nd nd | 0.90 | 0/18 |
| MISQLMNMGQFAINSVA | QASYRNE | QQYDRLPLM | nd nd 1.50 nd 0.49 0.94 | 0.98 | 1/18 (1.47) |
| MISQIYNMGTFAINSVA | QASIRNA | QQYDRLPLT | nd nd nd nd nd nd | nd | 0/18 |
| KLSQITGHMSVSKNNVA | EMVTRVN | QQYDRLPLS | 0.58 0.45 0.19 0.45 0.28 0.68 | 0.44 | 1/18 (2.35) |

Picked from the list: the 4 lowest averages where every replicate gave a value.

| CDR-L1 | CDR-L2 | CDR-L3 | replicates, log10 nM | mean log10 Kd (nM) | empty controls |
|---|---|---|---|---|---|
| KIGMTLNQLMQKKNNVA | DLVTREA | QQYHRLPLS | -0.10 0.07 -0.28 -0.21 -0.18 0.09 | -0.10 | 1/18 (2.39) |
| KLMSVTGTEKVMGNNVA | EMETREK | QQYNRLPLA | 0.19 0.42 -0.30 0.23 -0.21 0.18 | 0.09 | 0/18 |
| KISSMVRVGATHSNSIA | EEAKRAD | QQYHRLPLA | 0.18 0.13 0.30 0.16 -0.08 0.17 | 0.14 | 0/18 |
| TIADLMGHISKQTNNVA | DQNTRGD | QQYNRLPLS | 0.58 0.35 0.20 0.20 0.54 0.74 | 0.44 | 0/18 |

Reference: Li et al. 2023, doi:10.1038/s41467-023-39022-2. File: FLAb, binding data.